Chains of the proteins cited; added tags and fusions are not shown. Residues count along the entry.
UniProt P05106, 27-788: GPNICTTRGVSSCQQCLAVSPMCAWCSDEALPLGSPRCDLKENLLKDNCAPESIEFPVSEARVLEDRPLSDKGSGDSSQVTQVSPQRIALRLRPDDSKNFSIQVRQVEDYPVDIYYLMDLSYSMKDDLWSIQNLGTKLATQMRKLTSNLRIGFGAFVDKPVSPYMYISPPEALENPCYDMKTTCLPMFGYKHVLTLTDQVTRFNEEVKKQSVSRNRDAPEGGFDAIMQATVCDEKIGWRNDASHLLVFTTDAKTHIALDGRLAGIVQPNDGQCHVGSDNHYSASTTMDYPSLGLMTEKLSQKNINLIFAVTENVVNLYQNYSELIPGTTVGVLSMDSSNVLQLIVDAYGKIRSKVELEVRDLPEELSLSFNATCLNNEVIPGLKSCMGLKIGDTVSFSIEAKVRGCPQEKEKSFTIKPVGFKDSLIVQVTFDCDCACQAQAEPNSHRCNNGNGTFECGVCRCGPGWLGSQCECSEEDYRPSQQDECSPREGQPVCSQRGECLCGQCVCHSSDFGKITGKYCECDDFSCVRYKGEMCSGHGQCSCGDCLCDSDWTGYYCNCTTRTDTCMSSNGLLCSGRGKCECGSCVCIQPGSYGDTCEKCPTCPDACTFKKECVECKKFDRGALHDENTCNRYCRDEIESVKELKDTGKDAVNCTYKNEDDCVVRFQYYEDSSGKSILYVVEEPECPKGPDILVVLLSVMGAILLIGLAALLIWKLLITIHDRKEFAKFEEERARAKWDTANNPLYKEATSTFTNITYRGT
UniProt P06756, 891-1048 partner limits assumed: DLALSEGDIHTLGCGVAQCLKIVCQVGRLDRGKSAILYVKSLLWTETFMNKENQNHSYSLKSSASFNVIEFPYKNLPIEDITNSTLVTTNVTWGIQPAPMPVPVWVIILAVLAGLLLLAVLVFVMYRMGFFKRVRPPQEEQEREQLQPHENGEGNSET
UniProt P06756, 31-889 limits assumed: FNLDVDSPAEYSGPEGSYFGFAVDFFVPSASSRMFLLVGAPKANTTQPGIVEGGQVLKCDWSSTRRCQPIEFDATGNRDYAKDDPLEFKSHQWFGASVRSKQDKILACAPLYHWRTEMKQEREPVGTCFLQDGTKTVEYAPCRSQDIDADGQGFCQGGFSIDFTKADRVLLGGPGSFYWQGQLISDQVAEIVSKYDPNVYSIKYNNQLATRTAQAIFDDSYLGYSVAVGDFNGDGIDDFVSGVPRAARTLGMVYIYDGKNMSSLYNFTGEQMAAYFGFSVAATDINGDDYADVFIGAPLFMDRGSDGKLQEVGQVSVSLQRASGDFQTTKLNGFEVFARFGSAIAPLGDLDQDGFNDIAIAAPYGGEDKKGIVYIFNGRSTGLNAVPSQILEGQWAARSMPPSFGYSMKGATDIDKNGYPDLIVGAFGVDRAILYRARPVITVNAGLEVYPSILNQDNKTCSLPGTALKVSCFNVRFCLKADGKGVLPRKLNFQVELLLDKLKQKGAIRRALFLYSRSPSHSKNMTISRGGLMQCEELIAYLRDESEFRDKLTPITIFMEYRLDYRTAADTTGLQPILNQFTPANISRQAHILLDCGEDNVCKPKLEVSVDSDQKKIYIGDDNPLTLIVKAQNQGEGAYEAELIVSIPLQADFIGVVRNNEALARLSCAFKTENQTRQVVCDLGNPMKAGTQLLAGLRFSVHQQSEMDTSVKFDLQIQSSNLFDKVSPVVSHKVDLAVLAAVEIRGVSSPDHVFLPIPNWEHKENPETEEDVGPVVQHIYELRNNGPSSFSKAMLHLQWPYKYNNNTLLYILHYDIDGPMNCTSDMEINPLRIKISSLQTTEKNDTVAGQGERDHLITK
UniProt P08514, 32-887 limits assumed: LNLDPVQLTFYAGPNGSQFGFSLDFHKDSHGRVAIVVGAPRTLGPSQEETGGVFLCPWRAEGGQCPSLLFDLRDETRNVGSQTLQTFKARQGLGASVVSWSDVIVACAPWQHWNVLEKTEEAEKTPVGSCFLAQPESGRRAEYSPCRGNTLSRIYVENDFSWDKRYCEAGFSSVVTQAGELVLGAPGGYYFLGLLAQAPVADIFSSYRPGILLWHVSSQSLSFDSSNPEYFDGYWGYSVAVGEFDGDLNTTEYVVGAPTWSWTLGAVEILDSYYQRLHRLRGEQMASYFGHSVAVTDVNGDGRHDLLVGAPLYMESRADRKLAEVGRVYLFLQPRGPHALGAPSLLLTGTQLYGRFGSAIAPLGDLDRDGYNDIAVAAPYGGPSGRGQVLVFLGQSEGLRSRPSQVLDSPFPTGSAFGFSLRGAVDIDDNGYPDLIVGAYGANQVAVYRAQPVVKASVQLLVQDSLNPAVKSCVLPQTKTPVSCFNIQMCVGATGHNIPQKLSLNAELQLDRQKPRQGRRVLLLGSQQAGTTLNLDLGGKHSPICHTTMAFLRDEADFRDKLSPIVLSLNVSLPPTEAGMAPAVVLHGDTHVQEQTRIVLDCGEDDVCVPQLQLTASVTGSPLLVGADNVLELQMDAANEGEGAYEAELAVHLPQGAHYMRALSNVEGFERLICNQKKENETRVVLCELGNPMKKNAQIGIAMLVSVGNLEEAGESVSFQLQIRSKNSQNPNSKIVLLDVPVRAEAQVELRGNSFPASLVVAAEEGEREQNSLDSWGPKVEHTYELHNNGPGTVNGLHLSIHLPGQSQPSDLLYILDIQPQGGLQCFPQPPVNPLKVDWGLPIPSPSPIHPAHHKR
UniProt P08514, 891-1039 partner limits assumed: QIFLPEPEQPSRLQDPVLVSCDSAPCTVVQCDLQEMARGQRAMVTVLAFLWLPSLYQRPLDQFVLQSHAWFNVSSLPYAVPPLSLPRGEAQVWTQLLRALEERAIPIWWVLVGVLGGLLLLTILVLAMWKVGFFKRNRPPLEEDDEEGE

The target of one test is T1, Vitronectin receptor (Vn-R) (Homo sapiens, UniProt P05106+P06756).
T1 construct: from (100 mM) octyl glucoside (OG) extracted human placenta; from tissue; host or cells: human placenta
The experiment in a line: Liposome attachment assay for vitronectin receptor. As to conditions: purified receptor, read-out: VnR Binding (IC50). The method, then:
Receptors were purified according to the procedures of Pytela et al. (Methods Enzymol. 144: 475 (1987)), incorporated herein by reference. […] After extraction, the suspension was filtered over a Sepharose 6B column and then applied to a GRGDSPK column. Except where stated, all procedures were carried out at 4° C. The peptide column was washed with three volumes of Tris-buffered saline (TBS) containing 1 mM Ca^2+ and 25 mM OG and then with TBS containing 1 mM Ca^2+ and 25 mM octyl thioglucoside (OTG) at room temperature. […] Finally, Ca^2+ and Mg^+2 were added to eluted fractions to achieve final concentrations of 1 mM for both ions.
(§1) This assay was performed with minor modifications, according to the method of Pytela et al., Methods Enzymol. 144: 475 (1987), incorporated herein by reference. Briefly, 1:4 mixture of labelled and unlabelled phosphatidylcholine (PC) liposomes was dissolved under nitrogen and diluted with an equal volume of purified receptor (purified as described in Example II) to achieve a fixed predetermined receptor-liposome concentration ratio. This mixture was then dialyzed overnight at 4° C. in phosphate buffered saline (PBS) containing 1 mM Ca^2+. An aliquot of the dialyzed sample was counted to assess radioactive content; the receptor-liposome mixture was then diluted to obtain a set radioactivity per unit volume.
Microtiter plates were coated with 10 μg of vitronectin. Non-specific sites were blocked for 2 hours at 37° C. in PBS containing 5 mg/ml BSA and 1 mM each of CaCl2 and MgCl2. The plates were then rinsed twice with PBS containing 1 mM Ca^+2 and Mg^+2, and 100 μl of the liposome-receptor mixture was added to each well. If necessary, peptides were added before this step in a 1-10% dilution. The plates were then incubated at 4° C. for 24 hours. The following day, the liquid in each well was aspirated and the plates were washed twice with PBS containing 1 mM Ca^+2 and Mg^+2. Finally, 100 μl of 2% SDS was added, the plates were shaken for 10-15 minutes, and the supernatants were collected, vortexed, and subjected to liquid scintillation counting. This procedure typically yielded ca. 1000 total and 100 non-specific counts per well.
In parallel studies with the platelet aggregation experiments (described in Example V), the apparent affinities of peptides for GP IIb/IIIa, fibronectin and vitronectin receptors were determined. Receptor-binding assays (as described in Examples III and IV) with purified receptors, were used to assess the abilities of the peptides to displace the binding of receptors to their receptor-specific ligands.
IC50 s for FnR were determined by ELISA (Example III). Those for VnR and GP IIb/IIIa were determined by liposome attachment assay (Example IV). The GRGDSP prototype peptide is used as a reference for comparison between assays for an individual peptide.
As for RPenGRGDTPCA, the IC50 came out at 5600 nM.
The same measure, in the same setting: to GPenLRGDSPCA belongs 7900 nM; to RPenGRGDTPCR, 2560 nM.
Still for that read-out and setting: to RPenGHRGDWRCR belongs 710 nM; to GPenGRGDTPCA, 470 nM.

Another test deals with GP IIb/IIIa (Homo sapiens, UniProt P05106+P08514). The experiment in a line: Liposome attachment assay for GP IIb/IIIa. As to conditions: read-out: IIb/IIIa Binding (IC50). As to the method:
as §1
Microtiter plates were coated with 10 μg of vitronectin. Non-specific sites were blocked for 2 hours at 37° C. in PBS containing 5 mg/ml BSA and 1 mM each of CaCl2 and MgCl2. The plates were then rinsed twice with PBS containing 1 mM Ca^+2 and Mg^+2, and 100 μl of the liposome-receptor mixture was added to each well. […]
In parallel studies with the platelet aggregation experiments (described in Example V), the apparent affinities of peptides for GP IIb/IIIa, fibronectin and vitronectin receptors were determined. […]
IC50 s for FnR were determined by ELISA (Example III). Those for VnR and GP IIb/IIIa were determined by liposome attachment assay (Example IV). […]
Take RPenGRGDWPCR: the IC50 came out at 430 nM.

Values taken from patent US5648330A, “Method and composition for treating vascular graft occlusion” (La Jolla Cancer Research Foundation, priority 1995, dated 1997).
